Source: PMC6662923 (Chemical research in toxicology, 2018)

System: male Swiss Webster mice
Assay: Lethality assay in mice
Conditions: oral doses 50, 25, 12.5 and 6.25 mg/kg

Question: For `CC[C@@H]1CN2CC[C@@]3(O)C(=Nc4cccc(OC)c43)[C@@H]2C[C@@H]1/C(=C\OC)C(=O)OC` [7-hydroxymitragynine, 7-Hydroxymitragynine], which Oral lethality outcome is on record?
Answer: none of the mice expired
